From patent US20180313853A1

Molecular target: all-L-Aβ40WT (amyloid beta 40, all-L enantiomer) (human)
Assay: cell-based or functional assay

all-D-Aβ40WT (amyloid beta 40, all-D enantiomer) (peptide)
Thioflavin T (ThT) fluorescence: start of fibril formation: 0 min | Thioflavin T (ThT) fluorescence: time to maximum fluorescence for fibril formation: 200 min
